Experimental findings from patent publication US11479755B2, “T cell compositions” (2seventy bio, Inc., priority 2015, dated 2022) are described below.

The test system of this experiment is anti-BCMA CAR T cells. The experiment can be described thus: Cell surface marker expression by multiparameter mass cytometry (CyTOF). The following applies: CD62L positive cells, ten days of culture. It is filed as cell-based. Here is the method: Expression analysis of 29 additional cell surface markers on anti-BCMA CAR T cells cultured with IL-2 and ZSTK474 was performed using multiparameter mass cytometry (CyTOF) and compared with CAR T cells cultured in IL-2 alone. […] Thus, co-expression of CD62L, CD127, CD197, and CD38 further stratified ZSTK474-cultured CAR T cells. After culture in media containing IL-2, 7.44% of anti-BCMA CART co-expressed CD127, CD197 and CD38 compared to 24.5% of anti-BCMA CAR T cells cultured with IL-2 and ZSTK474. The Venn diagram in FIG. 8 illustrates the co-expression of CD127, CD197 and CD38 in CD62L positive anti-BCMA CAR T cells.

For the substance “IL-2: interleukin-2 (CellGenix) in culture media; standard culture condition”, the “anti-BCMA CAR T cells co-expressing CD127, CD197 and CD38” value amounted to 7.44%.
